{
  "source": "ChEMBL document CHEMBL1138643",
  "about": "“Haloperidol: towards further understanding of the structural contributions of its pharmacophoric elements at D2-like receptors” (Bioorg Med Chem Lett, 2004)",
  "test": "Binding affinity for dopamine D2 receptor to that of dopamine D4 receptor",
  "data": [
    {"smiles": "O=C(CCCN1CCC(c2ccc(Cl)cc2)CC1)c1ccc(F)cc1", "values": [
      {"measurement": "Ratio", "value": 0.6}
    ]}
  ]
}
